scFv variants of Ab-91 (heavy chain) against a SARS-CoV-2 spike peptide

Antigen: PDVDLGDISGINAS, a 14-residue peptide of the SARS-CoV-2 spike HR2 region.

Parent scFv Ab-91: VL joined to VH by a (GGGGS)3 linker. Changes lie in the heavy chain CDRs alone.
VL: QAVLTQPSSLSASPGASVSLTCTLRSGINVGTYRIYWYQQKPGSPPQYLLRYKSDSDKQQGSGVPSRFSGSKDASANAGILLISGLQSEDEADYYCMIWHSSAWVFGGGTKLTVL
VH: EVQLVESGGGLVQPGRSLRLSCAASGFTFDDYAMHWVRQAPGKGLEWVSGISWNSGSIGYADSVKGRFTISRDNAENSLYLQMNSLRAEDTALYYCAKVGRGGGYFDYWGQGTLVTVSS

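The parent was found by panning a naive human phage display library on the peptide. Library AAYL51 holds single substitutions and randomly drawn double and triple substitutions in the CDRs. The scFvs were displayed on barcoded MATa yeast, the peptide on MATalpha yeast. After mating in shaken culture at 30 °C for 16 h, diploids were selected and their barcode pairs sequenced. The ratio of observed to expected reads was calibrated, replicate by replicate, on BCL2-family standards whose Kd was known from biolayer interferometry. The assay was run in three technical replicates.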

Each variant is given by its three heavy chain CDRs, as the data file delimits them; those of the parent are GFTFDDYAMH, GISWNSGSIGYADSVK, VGRGGGYFDY.
Numbers give log10(Kd / nM), so 0 is 1 nM and 3 is 1 µM. Smaller is tighter.
An entry "n.d." has no value in the source: the pair was not observed among the diploids in that replicate. This suggests poor binding but is not conclusive.

| CDR-H1 | CDR-H2 | CDR-H3 | log10 Kd (nM) by replicate | signal with controls |
|---|---|---|---|---|
| GFTFDDYAHH | GASWNSGSIGCADSVK | VGRGGGYFDY | n.d. 4.65 n.d. | 0/9 |
| GFTFDDYPMH | GISINSGSIGYADSVK | VGRGGGDFDY | 5.03 6.00 n.d. | 6/9 (5.44) |
| GFTFDDYAMH | GISWNSGSHGYHDSVK | VTRGGGYFDY | n.d. n.d. n.d. | 0/9 |
| GFTFDDYAMH | GISWNSGSIGYADLVK | YVRGGGYFDY | n.d. n.d. n.d. | 0/9 |
| GFTFDLYAMH | GISWNSTSIGYADSVK | EGRGGGYFDY | n.d. n.d. n.d. | 1/9 (4.30) |
| GFTFDDYAMW | GISWSSGSIGYADSVK | VGRVGGYFDY | n.d. n.d. n.d. | 0/9 |
| GFTFDDYAMH | GISWNSHSIGYADSVK | LNRGGGYFDY | 5.73 n.d. 5.44 | 6/9 (4.57) |
| GFTFYDYAMH | GISWNSGIIGYADSVK | VGRGGGGFDY | n.d. n.d. n.d. | 3/9 (5.01) |
| GFTFDGYAMH | GISWNSGSIGYADSVK | VGNGGGYFDC | n.d. n.d. n.d. | 3/9 (4.66) |
| GFTFDDYKEH | GISMNSGSIGYADSVK | VGRGGGYFDY | n.d. 4.69 n.d. | 0/9 |
| GFTFDDYAMH | GISWNSGSIGYADSVK | VGRGGTYFDY | 1.38 1.46 1.35 | 1/9 (3.58) |
| GFTNDDYAMH | GISWKSGSIGYADSVK | HGRGGGYFDY | 3.99 n.d. 3.79 | 3/9 (3.83) |
| GFTSDDYAMH | GISWNSGSIGYADSVK | VGRGQGYFDM | n.d. n.d. 2.74 | 0/9 |
| GFTFDDYAMH | GISWNSGSIGYAHSVK | VGRGGGYFDY | 6.60 4.77 n.d. | 6/9 (5.29) |
| GFTHDDYAMF | GYSWNSGSIGYADSVK | VGRGGGYFDY | 5.44 n.d. n.d. | 5/9 (5.29) |
| GFTFDDYAMH | GISWNSGSIGYRDSVK | KGRGGGYFRY | 3.66 n.d. n.d. | 3/9 (4.45) |
| GFTFDDYAGH | GISWNSGSIGYADSPK | VGRSGGYFDY | n.d. 4.02 n.d. | 0/9 |
| GFTFDDYAMW | MISWNSGSIGYADSVL | VGRGGGYFDY | n.d. n.d. n.d. | 1/9 (4.52) |
| GFTFDDYAMH | GFSWNSGSIIYADSVK | LGRGGGYFDY | n.d. n.d. n.d. | 1/9 (4.91) |
| GFTFDDYAMH | GISWWSGSIGYAPSVK | VGRGGGYFDD | n.d. 4.54 n.d. | 3/9 (4.44) |
| GFTFDDYAMH | GIMWNSGSILYADSVK | VGRGGSYFDY | 4.60 4.85 5.39 | 8/9 (5.22) |
| GFTFDDYAMH | GVSWNSGSIGYADAVK | VGHGGGYFDY | 2.64 2.48 2.46 | 3/9 (4.54) |
| GFTHDDYAMH | GISWNSGSIGYADSEK | VERGGGYFDY | n.d. n.d. 5.35 | 1/9 (4.27) |
| HFTFDDYAMH | GWSWNSGSIGYADSVK | VGRGGGYEDY | 4.41 5.01 5.23 | 9/9 (4.93) |
| GFTFDDYAMH | GISWNSGSIPYADSVK | VGRKGGYFDI | n.d. n.d. n.d. | 1/9 (4.01) |
| GFTFDDYAIH | GISWNSGSIGYADSVK | VFRGKGYFDY | 3.90 4.98 n.d. | 2/9 (3.87) |
| GFTFDDYAMH | GISWNHGSIGYAMSVR | VGRGGGYFDY | n.d. n.d. n.d. | 2/9 (3.47) |
| GFTFDAYAMH | GISWNSGSIHYADSVK | NGRGGGYFDY | n.d. n.d. n.d. | 3/9 (4.34) |
| NFTFDDYAMH | GISWNSGSIGYADSVK | VGRGNHYFDY | n.d. n.d. n.d. | 0/9 |
| HFTFDDYAMH | GISWNSGSIGYADSTK | VGRGGGYFDY | 4.68 4.25 5.11 | 7/9 (4.64) |
| GFTFDDYAMH | TISWNSKSAGYADSVK | VGRGGGYFDY | n.d. n.d. n.d. | 0/9 |
| GFTFDDYAMH | GISWNSGSIGAADSVS | VGRYGGYFDY | 4.90 n.d. n.d. | 4/9 (4.45) |
| GFMFDDYAMH | CISMNSGSIGYADSVK | VGRGGGYFDY | n.d. n.d. n.d. | 0/9 |
| GFTFDDYAMH | GISWNSGSIGYAKSVK | VGRLGGYQDY | 3.83 2.53 2.89 | 3/9 (4.36) |
| AFTFDDYWMH | GISTNSGSIGYADSVK | VGRGGGYFDY | 3.89 3.46 n.d. | 1/9 (4.19) |
| GFTFDDYAMH | GISWNSGSIGYADSVK | FGRGGGYFDY | n.d. n.d. 2.83 | 0/9 |
| GKTFDDYAMW | GIDWNSGSIGYADSVK | VGRGGGYFDY | n.d. n.d. 2.62 | 0/9 |
| GFTFDDYAMH | GISWKSGAIGYADSVK | VGRGRGYFDY | 5.12 n.d. n.d. | 3/9 (4.87) |

Top 5 of the variants detected in all replicates, tightest first:

CDR-H1,CDR-H2,CDR-H3,log10 Kd (nM) by replicate,signal with controls
GFTFDDYAMH,GISWNSGSIGYADSVK,VGRGGTYFDY,1.38 1.46 1.35,1/9 (3.58)
GFTFDDYAMH,GVSWNSGSIGYADAVK,VGHGGGYFDY,2.64 2.48 2.46,3/9 (4.54)
GFTFDDYAMH,GISWNSGSIGYAKSVK,VGRLGGYQDY,3.83 2.53 2.89,3/9 (4.36)
HFTFDDYAMH,GISWNSGSIGYADSTK,VGRGGGYFDY,4.68 4.25 5.11,7/9 (4.64)
HFTFDDYAMH,GWSWNSGSIGYADSVK,VGRGGGYEDY,4.41 5.01 5.23,9/9 (4.93)

Nonspecific signal, from three strains lacking the peptide, appeared in 21% of pairings of library AAYL51, centred on 4.54 (5% of these signals below 3.26); values are not corrected for it. Also given: how often the same scFv was detected with the empty control strains, with their mean in brackets.
Parent in this assay: reference entry 1.86, copy in this library 0.88.

Values reported by Engelhart et al. 2022, doi:10.1038/s41597-022-01779-4 (FLAb copy).